Source: patent US20260294922A1, “Inhibitors of JUN N-Terminal Kinases (JNK1, JNK2, and/or JNK3) and Mitogen-Activated Protein Kinases (MAPK8, MAPK9, and/or MAPK10) and Methods of Using Same” (Baylor College of Medicine, priority 2023, published 2026)

Chains of the proteins cited; added tags and fusions are not shown. Lines headed by an entry give the natural chain unless they say otherwise; changes in a name come on top.
UniProt P49674: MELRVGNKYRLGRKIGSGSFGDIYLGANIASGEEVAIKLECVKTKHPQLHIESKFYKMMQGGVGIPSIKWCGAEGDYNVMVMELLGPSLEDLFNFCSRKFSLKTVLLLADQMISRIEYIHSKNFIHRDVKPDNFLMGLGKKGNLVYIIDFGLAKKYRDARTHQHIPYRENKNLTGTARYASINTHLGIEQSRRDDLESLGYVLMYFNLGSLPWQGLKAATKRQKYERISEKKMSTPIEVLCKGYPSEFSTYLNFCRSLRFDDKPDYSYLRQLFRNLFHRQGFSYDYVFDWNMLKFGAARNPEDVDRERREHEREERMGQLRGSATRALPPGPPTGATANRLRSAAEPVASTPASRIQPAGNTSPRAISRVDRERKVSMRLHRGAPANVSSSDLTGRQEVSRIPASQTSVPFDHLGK
UniProt P53779: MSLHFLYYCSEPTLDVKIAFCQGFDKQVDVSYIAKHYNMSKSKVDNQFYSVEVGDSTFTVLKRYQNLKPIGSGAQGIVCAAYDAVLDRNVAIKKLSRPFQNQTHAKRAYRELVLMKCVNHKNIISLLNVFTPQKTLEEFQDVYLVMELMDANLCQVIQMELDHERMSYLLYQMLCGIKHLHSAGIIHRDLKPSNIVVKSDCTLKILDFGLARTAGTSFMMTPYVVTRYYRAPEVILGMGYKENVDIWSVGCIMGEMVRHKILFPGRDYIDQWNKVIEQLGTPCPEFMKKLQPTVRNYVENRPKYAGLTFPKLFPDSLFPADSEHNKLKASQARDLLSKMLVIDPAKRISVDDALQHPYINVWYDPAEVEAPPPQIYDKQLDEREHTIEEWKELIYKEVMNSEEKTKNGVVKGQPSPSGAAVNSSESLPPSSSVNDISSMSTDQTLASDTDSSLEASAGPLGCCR
UniProt P45983: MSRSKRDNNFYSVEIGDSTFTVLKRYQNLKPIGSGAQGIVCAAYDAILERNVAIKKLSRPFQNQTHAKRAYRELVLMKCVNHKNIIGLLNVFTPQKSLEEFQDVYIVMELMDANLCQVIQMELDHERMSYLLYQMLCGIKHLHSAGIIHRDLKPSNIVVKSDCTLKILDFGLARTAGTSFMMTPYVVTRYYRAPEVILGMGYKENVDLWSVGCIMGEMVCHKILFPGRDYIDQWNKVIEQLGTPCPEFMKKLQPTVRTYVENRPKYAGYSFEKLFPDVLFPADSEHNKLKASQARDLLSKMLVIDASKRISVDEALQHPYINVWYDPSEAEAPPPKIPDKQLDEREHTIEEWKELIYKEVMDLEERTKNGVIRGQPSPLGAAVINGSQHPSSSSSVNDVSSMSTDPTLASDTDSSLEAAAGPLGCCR
UniProt P48730: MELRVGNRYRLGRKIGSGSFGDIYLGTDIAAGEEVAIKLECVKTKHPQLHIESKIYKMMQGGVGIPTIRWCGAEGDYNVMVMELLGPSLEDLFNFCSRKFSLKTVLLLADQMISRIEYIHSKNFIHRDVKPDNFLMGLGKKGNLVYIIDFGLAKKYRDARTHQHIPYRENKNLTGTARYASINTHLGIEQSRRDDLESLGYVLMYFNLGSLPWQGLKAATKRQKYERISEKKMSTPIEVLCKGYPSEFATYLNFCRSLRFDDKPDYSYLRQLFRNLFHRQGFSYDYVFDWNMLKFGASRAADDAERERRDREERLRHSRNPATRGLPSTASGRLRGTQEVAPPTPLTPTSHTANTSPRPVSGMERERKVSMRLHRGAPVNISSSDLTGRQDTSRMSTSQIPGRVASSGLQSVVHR
UniProt P28482, whole entry, looked up: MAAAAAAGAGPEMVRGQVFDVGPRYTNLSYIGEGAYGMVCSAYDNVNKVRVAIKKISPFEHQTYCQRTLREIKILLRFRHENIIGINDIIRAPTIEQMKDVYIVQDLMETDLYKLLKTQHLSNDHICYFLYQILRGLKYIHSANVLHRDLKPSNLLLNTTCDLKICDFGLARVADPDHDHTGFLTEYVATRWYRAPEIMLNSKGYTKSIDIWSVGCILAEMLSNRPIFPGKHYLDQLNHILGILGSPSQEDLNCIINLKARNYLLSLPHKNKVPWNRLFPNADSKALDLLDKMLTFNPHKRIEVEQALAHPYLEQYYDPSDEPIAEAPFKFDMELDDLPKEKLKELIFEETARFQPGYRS
UniProt P57078: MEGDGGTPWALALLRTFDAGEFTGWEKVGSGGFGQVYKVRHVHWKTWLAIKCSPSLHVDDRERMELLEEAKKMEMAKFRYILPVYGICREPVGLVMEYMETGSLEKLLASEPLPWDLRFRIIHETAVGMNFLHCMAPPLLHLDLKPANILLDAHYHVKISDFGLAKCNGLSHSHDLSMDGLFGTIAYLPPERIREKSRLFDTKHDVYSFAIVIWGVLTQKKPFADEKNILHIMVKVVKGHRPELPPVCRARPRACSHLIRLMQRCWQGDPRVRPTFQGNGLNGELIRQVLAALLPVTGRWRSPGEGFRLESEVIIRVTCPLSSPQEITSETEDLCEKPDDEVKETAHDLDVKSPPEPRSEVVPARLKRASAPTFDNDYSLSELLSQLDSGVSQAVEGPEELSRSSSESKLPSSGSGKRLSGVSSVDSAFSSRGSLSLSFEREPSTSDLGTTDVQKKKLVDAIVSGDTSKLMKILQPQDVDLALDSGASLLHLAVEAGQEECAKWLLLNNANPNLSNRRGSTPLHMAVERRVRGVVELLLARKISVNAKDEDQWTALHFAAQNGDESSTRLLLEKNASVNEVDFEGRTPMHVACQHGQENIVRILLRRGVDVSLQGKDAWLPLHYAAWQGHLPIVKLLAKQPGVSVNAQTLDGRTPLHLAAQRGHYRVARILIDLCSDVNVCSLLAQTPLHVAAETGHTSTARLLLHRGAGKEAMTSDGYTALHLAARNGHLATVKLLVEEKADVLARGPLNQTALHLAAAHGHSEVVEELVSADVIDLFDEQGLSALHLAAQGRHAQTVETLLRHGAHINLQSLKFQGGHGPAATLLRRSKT
UniProt P49761: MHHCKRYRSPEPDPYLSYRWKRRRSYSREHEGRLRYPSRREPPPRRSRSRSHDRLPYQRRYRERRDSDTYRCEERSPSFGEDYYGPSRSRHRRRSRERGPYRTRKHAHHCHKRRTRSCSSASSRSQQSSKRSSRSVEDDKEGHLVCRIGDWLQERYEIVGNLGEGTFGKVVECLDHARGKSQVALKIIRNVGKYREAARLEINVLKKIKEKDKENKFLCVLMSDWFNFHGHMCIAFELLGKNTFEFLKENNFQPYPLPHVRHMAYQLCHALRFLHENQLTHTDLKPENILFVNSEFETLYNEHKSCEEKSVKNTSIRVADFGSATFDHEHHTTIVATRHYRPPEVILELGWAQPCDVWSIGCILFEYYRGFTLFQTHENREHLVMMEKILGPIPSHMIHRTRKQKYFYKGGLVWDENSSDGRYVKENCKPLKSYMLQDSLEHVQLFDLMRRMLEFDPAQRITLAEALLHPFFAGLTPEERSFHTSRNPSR
UniProt P45985: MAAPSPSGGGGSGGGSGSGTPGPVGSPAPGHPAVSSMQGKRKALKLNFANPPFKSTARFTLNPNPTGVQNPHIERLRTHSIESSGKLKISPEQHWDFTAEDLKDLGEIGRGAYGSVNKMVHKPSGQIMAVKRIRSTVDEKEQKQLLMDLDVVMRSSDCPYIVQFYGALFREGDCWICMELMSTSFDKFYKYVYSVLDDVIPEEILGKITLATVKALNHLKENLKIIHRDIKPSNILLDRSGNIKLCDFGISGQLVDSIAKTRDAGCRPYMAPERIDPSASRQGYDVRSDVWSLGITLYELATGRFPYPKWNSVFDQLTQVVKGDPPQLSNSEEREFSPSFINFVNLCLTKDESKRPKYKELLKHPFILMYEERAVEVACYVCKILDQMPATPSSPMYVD
UniProt P49760, whole entry, looked up: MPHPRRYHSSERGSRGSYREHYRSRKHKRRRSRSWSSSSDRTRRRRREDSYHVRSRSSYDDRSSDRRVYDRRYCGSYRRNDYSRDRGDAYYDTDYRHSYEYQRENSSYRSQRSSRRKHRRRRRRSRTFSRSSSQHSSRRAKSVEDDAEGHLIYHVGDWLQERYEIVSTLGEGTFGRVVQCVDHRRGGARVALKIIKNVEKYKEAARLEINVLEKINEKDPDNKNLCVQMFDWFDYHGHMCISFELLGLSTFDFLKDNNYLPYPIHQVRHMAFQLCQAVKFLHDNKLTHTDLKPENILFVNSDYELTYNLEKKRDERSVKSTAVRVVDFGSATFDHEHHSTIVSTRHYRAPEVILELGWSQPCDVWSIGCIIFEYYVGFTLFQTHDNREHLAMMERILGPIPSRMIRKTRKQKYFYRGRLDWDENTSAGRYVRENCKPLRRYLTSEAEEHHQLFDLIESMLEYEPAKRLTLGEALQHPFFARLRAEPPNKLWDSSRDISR

Assays:
JNK2 = JNK2 (Homo sapiens, UniProt P45984); assay: ThermoFisher SelectScreen, JNK2; type: binding; settings: in-pathway
CSNK1E = CSNK1E (Homo sapiens, UniProt P49674); assay: ThermoFisher SelectScreen, CSNK1E; type: binding; settings: out-of-pathway
480 kinases = assay: Eurofins KINOMEscan selectivity profile; type: binding
JNK3 = JNK3 (Homo sapiens, UniProt P53779); assay: ThermoFisher SelectScreen, JNK3; type: binding; settings: in-pathway
JNK1 = JNK1 (Homo sapiens, UniProt P45983); assay: ThermoFisher SelectScreen, JNK1; type: binding; settings: in-pathway
CSNK1D = CSNK1D (Homo sapiens, UniProt P48730); assay: ThermoFisher SelectScreen, CSNK1D; type: binding; settings: out-of-pathway
ERK2 = ERK2 (Homo sapiens, UniProt P28482); assay: ThermoFisher SelectScreen, ERK2; type: binding; settings: Opportunistic
RIPK4 = RIPK4 (Homo sapiens, UniProt P57078); assay: ThermoFisher SelectScreen, RIPK4; settings: out-of-pathway
CLK3 = CLK3 (Homo sapiens, UniProt P49761); assay: ThermoFisher SelectScreen, CLK3; type: binding; settings: out-of-pathway
MEK4 = MEK4 (Homo sapiens, UniProt P45985); assay: ThermoFisher SelectScreen, MEK4; type: binding
CLK2 = CLK2 (Homo sapiens, UniProt P49760); assay: ThermoFisher SelectScreen, CLK2; type: binding; settings: Opportunistic

In the case of `CN(C)C(=O)c1cc(NC(=O)c2cc3c(-c4cnc5[nH]ccc5c4)cccc3s2)ccc1O` [CDD-2728, N-(3-(dimethylcarbamoyl)-4-hydroxyphenyl)-4-(1H-pyrrolo[2,3-b]pyridin-5-yl)benzo[b]thiophene-2-carboxamide], the Selectivity ratio (SR) JNK2 relative to JNK1 (JNK2) is reported as 3, the Selectivity ratio (SR) CSNK1E relative to JNK1 (CSNK1E) is reported as 596 and the “KINOMEscan selectivity / inhibition” value (480 kinases; Bentamapimod and Tanzisertib at 1 μM) is reported as “No activity of CDD-2728 was detected for Atypical, Mutant, or Lipid kinases”. For the same compound, the “selectivity for five of the out-of-pathway kinase targets” value (480 kinases; confirmed by ThermoFisher SelectScreen) was “over 500 fold”, the “selectivity among the MEK family relative to pazopanib” value (480 kinases; in words) was “far more selective than pazopanib” and the Selectivity ratio (SR) JNK3 relative to JNK1 (JNK3) was 2. The Selectivity ratio (SR) JNK1 relative to JNK1 (JNK1) was 1, the Selectivity ratio (SR) CSNK1D relative to JNK1 (CSNK1D) was 511 and the Selectivity ratio (SR) ERK2 relative to JNK1 (ERK2) was 505. For the same compound, the Selectivity ratio (SR) RIPK4 relative to JNK1 (RIPK4) was > 500, the Selectivity ratio (SR) CLK3 relative to JNK1 (CLK3) was 568 and the Selectivity ratio (SR) MEK4 relative to JNK1 (MEK4; in-pathway) was 7.6. For the same compound, the “selectivity for in-pathway target” value (MEK4; in-pathway target) was 7 fold and the Selectivity ratio (SR) CLK2 relative to JNK1 (CLK2) was 133.
